Substitutions are numbered along the chain they refer to. Blank lines part the entries; values can stand above or below the binder they belong to.
Assays:
human IL-4RA-hFc = molecular target: T1, human IL-4RA-hFc (human, UniProt P24394 26-232); assay: competitive ELISA, coat 2 ug/mL, competitor IL4-N-his 0.15 ug/mL (anti-His signal); antibody 3 ug/mL
T1 construct: mature; no linker is stated
T1 sequence (looked up): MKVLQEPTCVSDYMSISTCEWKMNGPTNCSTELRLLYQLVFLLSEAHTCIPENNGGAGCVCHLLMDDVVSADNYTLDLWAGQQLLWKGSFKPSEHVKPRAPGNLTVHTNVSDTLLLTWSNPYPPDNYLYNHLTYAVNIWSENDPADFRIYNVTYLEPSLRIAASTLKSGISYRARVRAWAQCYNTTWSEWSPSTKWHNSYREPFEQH
Experimental: The Elisa plates were coated with human IL-4RA-hFc and blocked before the target antibodies were added. […] After the plates were washed, mouse anti-His, HRP (purchased from CoWin Biosciences, Cat No. CW0285A) was added for incubation. The plates were subjected to another wash. A chromogenic reaction was performed by adding TMB (Neogen, 308177) and was then terminated. The Elisa plates were put into a microplate reader immediately, and the OD value of each well in the Elisa plates was read at 450 nm. The data were analyzed and processed by SoftMax Pro 6.2.1.

human IL-4RA-mFc [1] = molecular target: T2, human IL-4RA-mFc (human, UniProt P24394 26-232); assay: indirect ELISA; antibody 0.333 ug/mL diluted 1:729
T2 construct: mature; no linker is stated; Made by Akeso Biopharma; also used as the immunogen
Experimental: (§1) Procedures: The Elisa plates were coated with human IL-4RA-hFc or human IL-4RA-mFc and were incubated, and the target antibodies were added after blocking. […] The plates were incubated and washed before TMB (Neogen, 308177) was added for chromogenic reaction. At the end of the reaction, the absorbance at 450 nm was measured by a microplate reader. The data were analyzed and processed by SoftMax Pro 6.2.1.

human IL-4RA-mFc [2] = molecular target: T2, human IL-4RA-mFc; assay: indirect ELISA; antibody 0 (no-antibody blank)
Experimental: as §1

- OD 450 nm (human IL-4RA-hFc): 0.059 OD
- OD 450 nm (human IL-4RA-mFc [1]): 0.147 OD
B1: positive control antibody dupilumab VAB 16F3-1 (antibody, V domains shown)
VH: EVQLVESGGGLVQPGRSLRLSCEASGFTFDDYAMHWVRQAPGKGLEWVSGLSRTSVSIGYADSVKGRFTISRDNAKNSLYLEMNSLRPEDTALYYCAKWGTRGYFDYWGQGTLVTVSS
VL: DIQMTQSPSSVSASVGDRVTITCRASQDISIWLAWYQQSPGKAPKLLINVASRLQSGVPSRFSGSGSGTDFTLTINSLQPEDFVTYYCQQANSFPITFGQGTRLATKR

- OD 450 nm (human IL-4RA-mFc [2]): 0.063 OD
B2: humanized anti-human IL-4RA antibody 13E5H4L2 (antibody, V domains shown)
VH: QVQLVQSGAEVVKPGASVKVSCKTSGYTFTEYTIHWVRQAPGQSLEWIGGINPNNGGTVYNQKFQGKVTLTVDKSTSTAYMELSSLRSEDTAVYYCARVRRGMDYWGQGTSVTVSS
VL: DIQMTQSPSSLSASVGDRVTITCRASQDVTTAVAWYQQKPGKAPKLLIYSASSRYTGVPSRFSGSGSGTDFTLTISSVQPEDLATYYCQQHYSAPWTFGGGTNLEIKR

- OD 450 nm (human IL-4RA-mFc [2]): 0.056 OD
B3: humanized anti-human IL-4RA antibody 13E5H3L3 (antibody, V domains shown)
VH: B2 VH with T24A, S44G, V59N, N61A, K67R, L70I
VL: B2 VL with V33L, R54L, V78L, L83F

— patent US20250304703A1 (AKESO BIOPHARMA, published 2025)
